Experimental data published in patent US11472832B2, “Withanolides useful for the treatment of neurodegenerative diseases” (priority 2013, dated 2022).

Legend:
in vivo = settings: female, C57BL/6, mouse, ip
C57BL/6 female mice = settings: Patwardhan et al. 2006; cited from earlier work

For `CC1=C(CO)C(=O)O[C@@H]([C@@H](C)[C@H]2CC[C@H]3[C@@H]4C[C@H]5O[C@]56[C@@H](O)C=CC(=O)[C@]6(C)[C@H]4CC[C@]23C)C1` [WA, Withaferin A, reference compound], the LD50 at 24 h (in vivo) is given as 55 mg/kg and the LD50 previously reported (C57BL/6 female mice) is given as 54 mg/kg.
